Reference: ChEMBL document CHEMBL1124660, “Synthesis and in vitro aldose reductase inhibitory activity of compounds containing an N-acylglycine moiety” (J Med Chem, 1989)

Target: Aldo-keto reductase family 1 member B1 (Rattus norvegicus, UniProt P07943)
Assay: Inhibition of aldose reductase from rat lens. Value ranges from 0.07 - 1.2

IC50: 230 nM
SMILES: O=C1NC(=O)[C@@]2(CCOc3ccc(F)cc32)N1 [SORBINIL]
